Earlier results as cited in US20120190751A1, “COMPOUNDS FOR TREATMENTS OF INFLAMMATION” (ANA-MAR AB, priority 2009, published 2012).

Sequences of proteins named here, by UniProt entry; tags and fusion partners are left off.
UniProt P41595, whole entry: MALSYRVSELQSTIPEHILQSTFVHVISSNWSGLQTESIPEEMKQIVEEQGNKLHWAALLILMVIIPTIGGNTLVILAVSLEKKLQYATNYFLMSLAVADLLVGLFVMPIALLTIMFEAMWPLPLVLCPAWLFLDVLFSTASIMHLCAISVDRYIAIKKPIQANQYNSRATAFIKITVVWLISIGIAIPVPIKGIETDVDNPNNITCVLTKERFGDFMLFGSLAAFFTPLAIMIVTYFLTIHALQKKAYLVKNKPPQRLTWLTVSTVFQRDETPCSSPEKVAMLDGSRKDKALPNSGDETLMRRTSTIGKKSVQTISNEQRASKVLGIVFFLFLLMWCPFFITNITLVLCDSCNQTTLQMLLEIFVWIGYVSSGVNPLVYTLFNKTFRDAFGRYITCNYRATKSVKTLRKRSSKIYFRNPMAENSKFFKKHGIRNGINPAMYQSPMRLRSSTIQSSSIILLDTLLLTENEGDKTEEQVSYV

Molecular target: 5HT2B receptor (Homo sapiens, UniProt P41595)
Conditions: cited from earlier work

## mesulergine
  Affinity: 7.4 pKi
